For series [1] the following is noted: room temperature.

Turning to “complex salt of thiodiphenylamine cupric chloride”, the soluble in water is 2-2.5%. Besides, the “storage without loosing its activity” value in series [1] is on record as “over 5 years”.

The values are drawn from patent US4016272A, “Anthelmintic thiodiphenylamine cupric chloride complex salt” (priority 1975, dated 1977).
